Only a part is listed here, and it is no random draw. Activity calls are given as the source filed them.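 Rule for the calls: active = activation above the mean over all tested compounds plus 3 SD (cut at about 0.9% in these data); inactive = the rest.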

The assay relates to Nuclear hormone receptor DAF-12 (Strongyloides stercoralis). The assay can be described thus: ssDAF-12 driven luciferase reporter activation – cell-based, luminescence, HEK293, GRIP1 co-expression, lit1-tk-luc, primary screen (AID 652126).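 Note: 0% = DMSO-only wells and 100% = 3 µM delta7-dafachronic acid wells.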 The settings on record: HEK293 ssDAF-12/GRIP1 lit1-tk-luc reporter, at 6.8 µM, hits give high values, % of 3 µM dafachronic acid response.
As to `CCOC(=O)Nc1cccc([As](=O)(O)O)c1`, the activation was inactive: -0.57%. For the compound `O=[N+]([O-])c1ccc(Nc2ccc(Oc3ccc([N+](=O)[O-])cc3[N+](=O)[O-])cc2)c([N+](=O)[O-])c1`, the activation was inactive: -1.36%.

For `Cc1cc(SC(NC=O)C(Cl)(Cl)Cl)ncn1` (stereo not given), the activation is inactive: -1.19%.

On to `O=P(Nc1ccccn1)(c1cccc2ccccc12)c1cccc2ccccc12`, for which the activation is inactive: -1.06%. The result for `CC1CCNP(=O)(N(CCCl)CCCl)O1` (stereo not given) reads inactive: -1.44%; that for `O=C(O)C(O)c1ccc(N(CCCl)CCCl)cc1` (stereo not given), inactive: -0.34%. The figure for `CCOC(=O)Nc1ccc([As](=O)(O)O)c(O)c1` is inactive: -1.23%; for `Cc1cc(SC(NC(=O)c2ccccc2)C(Cl)(Cl)Cl)nc(C(C)C)n1` (stereo not given) it is inactive: -0.88%; for `CCCCOc1ccc(C(=O)NCC2(N3CCCCC3)CCCCC2)cc1OC` it is inactive: -1.21%. The figure for `COP(=O)(OC)N1CC1c1ccccc1` (stereo not given) is inactive: -1.24%. With `CCOC(=O)c1ccc(NC(=O)C(C)(CCl)SC)cc1` (stereo not given), the activation was inactive: 0.49%. With `O=C(OC1CN2CCC1CC2)c1cccc([N+](=O)[O-])c1` (stereo not given), the activation is inactive: -1%. `CCC(C)N(CC(C)C)C(=S)SC(NC(C)=O)C(Cl)(Cl)Cl` (stereo not given): the activation is inactive: -1.12%. As to `COC(=O)C1(C)COP(=O)(N2CCCC2)OC1` (stereo not given), the activation is inactive: -0.23%.

For `COP1(=S)c2c(C)nn(CCC#N)c2N=C(c2ccc(F)cc2)N1C` (stereo not given), the activation is inactive: -1.71%. The figure for `O=C(Nc1ccncc1[N+](=O)[O-])c1ccc([N+](=O)[O-])cc1[N+](=O)[O-]` is inactive: -0.92%; for `O=C(COc1ccccc1)OC1CN2CCC1CC2` (stereo not given) it is inactive: -1.25%; for `O=C(O)C(=O)c1ccc(N(CCCl)CCCl)cc1` it is inactive: -0.8%. Consider `COc1ccc(N/C(=N/P(=O)(N2CCOCC2)N2CCOCC2)N2CCOCC2)cc1`, for which the activation is inactive: -1.44%. The figure for `O=[N+]([O-])c1cc(Oc2ccc([N+](=O)[O-])cc2C(F)(F)F)cc([N+](=O)[O-])c1` is inactive: -0.71%; for `Cc1cc(=O)[nH]c(N[N+](=O)[O-])n1` it is inactive: -1.18%. On to `O=C(OC1CN2CCC1CC2)C12CC3CC(CC(C3)C1)C2` (stereo not given), for which the activation is inactive: -0.8%.

In the case of `Cc1c2c(nc3ccccc13)SC(C(Cl)Cl)C2` (stereo not given), the activation was inactive: -1.82%. Consider `COc1cc(I)ccc1[As](=O)(O)O`, for which the activation was inactive: 0.02%. The figure for `COc1ccc2nc(NP(=O)(c3ccccc3)c3ccccc3)sc2c1` is inactive: -1.53%; for `O=P1(N(CCCl)CCCl)Nc2ccccc2N1` it is inactive: 0.53%; for `O=P1(N(CCCl)CCCl)OCCCN1CCCl` (stereo not given) it is inactive: -0.52%.

With `CC(C)c1ccc(OP(=O)(Nc2ccccn2)Oc2ccccc2F)cc1` (stereo not given), the activation was inactive: -1.16%. Regarding `COC(=O)C1(C)COP(=O)(N2CCCCCC2)OC1` (stereo not given), the activation was inactive: -0.4%.

Consider `ClCCSc1nnc(-c2cccnc2)o1`, for which the activation was inactive: -0.03%. As for `O=C(OC1CN2CCC1CC2)c1cccc2[nH]cnc12` (stereo not given), the activation is inactive: -0.76%. On to `CCN(CC)C(=S)SC(NC=O)C(Cl)(Cl)Cl` (stereo not given), for which the activation was inactive: -0.14%. As for `CC(C)NC(=O)NP(=O)(Oc1ccccc1)Oc1ccccc1`, the activation is inactive: -0.64%. For `COc1cc(C(=O)NCC2(N3CCOCC3)CCCCC2)ccc1OCC(C)C`, the activation was inactive: -1.09%. The figure for `O=[N+]([O-])c1ccc(-c2cc([N+](=O)[O-])c(O)c([N+](=O)[O-])c2)cc1` is inactive: -1.59%; for `C[As](=O)(O)c1cccc(C(=O)O)c1` it is inactive: 0.69%.

In the case of `O=[As](O)(c1ccc(O)cc1)c1ccccc1O`, the activation is inactive: -1.46%.

Turning to `Cc1ccc2nc3c(c(C)c2c1)CC(C(Cl)Cl)S3` (stereo not given), the activation is inactive: -0.21%. As to `Cc1ccc(OP(=O)(Nc2ccc([N+](=O)[O-])cn2)Oc2ccc(C)cc2)cc1`, the activation is inactive: -1.46%. Consider `[N-]=[N+]=NC1CCCCC1NC(=O)c1cc([N+](=O)[O-])cc([N+](=O)[O-])c1` (stereo not given), for which the activation is inactive: -1.02%. Turning to `NC(=O)Nc1ccc([As](=O)(O)O)cc1`, the activation is inactive: -1.4%. As for `CN(C(=O)Cc1ccc(Cl)c(Cl)c1)[C@H]1CC[C@@]2(CCCO2)C[C@@H]1N1CCCC1`, the activation was inactive: 0.01%.

Consider `CN(C)C(=O)c1cc([N+](=O)[O-])cc2c1-c1c(cc([N+](=O)[O-])cc1[N+](=O)[O-])C2=O`, for which the activation was inactive: -0.33%. With `O=[N+]([O-])c1ccc2c(c1)nnn2O`, the activation is inactive: -1.21%. For the compound `CCOP1(=S)c2c(C)nn(CCC#N)c2N=C(c2ccc(F)cc2)N1C` (stereo not given), the activation was inactive: -1.58%. For `CN(C(=O)Cc1ccccc1)[C@@H]1CC[C@]2(CCCO2)C[C@H]1N1CCCC1`, the activation was inactive: 0.69%. Consider `N#CCCN(C(=O)COC(=O)C(O)(c1ccccc1)c1ccccc1)c1ccc(F)cc1`, for which the activation is inactive: -1.05%.

Regarding `O=P(Nc1nccs1)(Oc1ccccc1)Oc1ccccc1`, the activation is inactive: -0.65%. Regarding `CCOP1(=S)c2c(C)nn(CCC#N)c2N=C(c2ccccc2F)N1C` (stereo not given), the activation was inactive: -1.45%. `O=C(O)COc1ccc([As](=O)(O)O)cc1[N+](=O)[O-]`: the activation is inactive: -1.5%. In the case of `Nc1ccccc1[As](=O)(O)c1ccccc1`, the activation was inactive: -0.93%. For `CCCOP(=S)(Nc1nc(N)cc(=O)[nH]1)OCCC`, the activation is inactive: -0.85%. In the case of `Nc1cccc2c([As](=O)(O)O)cccc12`, the activation is inactive: -0.76%.

Consider `Cc1ccc(NCCc2c([N+](=O)[O-])cc([N+](=O)[O-])cc2[N+](=O)[O-])cc1`, for which the activation is inactive: -0.53%. Regarding `CCOP(=O)(Nc1cccc2ccccc12)OCC`, the activation is inactive: -0.86%.

As for `COc1cc(C2NCCC3(OCCO3)C2(C)C)cc(OC)c1OC` (stereo not given), the activation was inactive: -1.42%.

As for `CS(=O)(=O)c1ccc(Cl)c(NC(=O)COC(=O)C(O)(c2ccccc2)c2ccccc2)c1`, the activation was inactive: -0.96%. As for `COc1cc(C(=O)NCC2(N3CCOCC3)CCCCC2)cc(Cl)c1OC(C)C`, the activation was inactive: -0.84%.

On to `O=[As](O)(O)c1cccnc1`, for which the activation is inactive: -1.27%. In the case of `O=C(OC1CN2CCC1CC2)c1ccc(Cl)cc1` (stereo not given), the activation is inactive: -1.06%. `O=[As](O)(c1cccc(O)c1)c1cccc(O)c1`: the activation is inactive: -1.55%. The figure for `Cc1cccc(OCC(=O)OC2CN3CCC2CC3)c1` (stereo not given) is inactive: -1.19%; for `COc1ccccc1CNC(=O)COC(=O)C(O)(c1ccccc1)c1ccccc1` it is inactive: -0.87%; for `CC1(CBr)Cn2c(nc3ccccc3c2=O)S1` (stereo not given) it is inactive: -1.59%. As for `CN(C(=O)Cc1ccc(Cl)c(Cl)c1)C1CCCC[C@@H]1N1CCCC1` (stereo not given in full), the activation was inactive: -0.55%.

Take `CN(C(=O)Cc1ccc(Cl)c(Cl)c1)[C@@H]1CCCC[C@H]1N1CCCC1`: the activation is inactive: -0.53%. The figure for `CC(C)/C=N\N=C(\N)N[N+](=O)[O-]` is inactive: -0.38%; for `CN(CCCl)Cc1cc(Cl)c(NC2=NCCN2)c(Cl)c1` it is inactive: -1.12%. The result for `CCOP(=O)(Nc1ccc(C)cn1)OCC` reads inactive: -1.54%. With `CCOP(=O)(NC(=NC(C)c1ccccc1)NC(C)c1ccccc1)OCC` (stereo not given), the activation was inactive: -0.92%. The figure for `CCC1=CC2Cc3nc4ccc(Cl)cc4c(N)c3C(C1)C2` (stereo not given) is inactive: -1.36%; for `O=P1(Nc2ccccn2)COc2ccccc2OC1` it is inactive: -0.98%.

Consider `CC(C)(C)C(=O)NC(Sc1ncccn1)C(Cl)(Cl)Cl` (stereo not given), for which the activation is inactive: -0.29%.

For `Clc1n[nH]nc1-c1nn[nH][15n]1`, the activation is inactive: -1.56%. In the case of `O=P1(N(CCCl)CCCl)NCCC(C(F)(F)F)O1` (stereo not given), the activation is inactive: -1.57%.

With `O=P1(Nc2ncccn2)COc2ccccc2OC1`, the activation is inactive: -1.01%. Take `Cc1ccc(S(=O)(=O)N(CCCN)CCCc2c(C)nc(N)[nH]c2=O)cc1`: the activation was inactive: -0.27%. The result for `NS(=O)(=O)c1cccc(NC(=O)COC(=O)C(O)(c2ccccc2)c2ccccc2)c1` reads inactive: -1.88%; that for `O=P1(Nc2ccc(Br)cn2)COc2ccccc2OC1`, inactive: -1.3%. Consider `O=[As](O)(c1cccs1)c1cccs1`, for which the activation is inactive: -1.04%. `Cc1ccc(OCC(=O)OC2CN3CCC2CC3)cc1` (stereo not given): the activation is inactive: -1.2%. The figure for `Nc1cccc([As](=O)(O)c2ccccc2)c1` is inactive: -1.23%; for `Cc1ccc(C(=O)OC2CN3CCC2CC3)cc1` (stereo not given) it is inactive: -1.32%. As to `CC1CCC(C(C)C)C(OP(=O)(Nc2ccccn2)c2ccccc2)C1` (stereo not given), the activation was inactive: -1.3%. On to `Cc1nn(-c2ccccc2)c2c1P(=O)(N1CCOCC1)N(C)C(c1ccccc1)=N2` (stereo not given), for which the activation is inactive: -1.36%.

For the compound `CCCC1OP(=O)(Nc2ccccc2)OCC1CC` (stereo not given), the activation is inactive: -1.08%.

`O=C(/C=C/c1ccccc1)OC1CN2CCC1CC2` (stereo not given): the activation is inactive: -1.13%.

For `CN(C)C1(CNC(=O)c2ccc(S(C)(=O)=O)cc2)CCCCC1`, the activation was inactive: -1.43%. Regarding `O=[N+]([O-])c1ncn(CCn2cnc([N+](=O)[O-])n2)n1`, the activation was inactive: -1.57%. For the compound `CC(=O)NC(SC(=S)N(C)C)C(Cl)(Cl)Cl` (stereo not given), the activation was inactive: -1.38%. `O=[As](O)(c1ccccc1)c1ccc(O)cc1`: the activation was inactive: -1.7%. Consider `Nc1ccc([As](=O)(O)c2ccc([N+](=O)[O-])cc2)cc1`, for which the activation is inactive: -1.64%. For the compound `C(Cc1nn[nH]n1)Cc1nn[nH]n1`, the activation is inactive: -1.16%.

For the compound `C/C(N)=N\P(=O)(OCc1ccccc1)OCc1ccccc1`, the activation was inactive: -0.47%. On to `O=C(OC1CN2CCC1CC2)c1cccc(Cl)c1` (stereo not given), for which the activation was inactive: -1.39%. The figure for `Nc1ccc(CCCCOc2ccccc2)cc1` is inactive: -0.58%. The result for `COc1ccc(N)c([N+](=O)[O-])c1[N+](=O)[O-]` reads inactive: -1.26%. The result for `CN(C)C1(CNC(=O)c2ccc(Cl)c(S(N)(=O)=O)c2)CCCCC1` reads inactive: -1.13%; that for `O=P(Nc1ccccn1)(c1ccc(Br)cc1)c1ccc(Br)cc1`, inactive: -1.38%. As to `C[C@H]1OP(=O)(Oc2ccccc2)[C@H](O)[C@H](O)[C@H]1N=[N+]=[N-]` (stereo not given in full), the activation is inactive: -1.24%.

These data come from PubChem BioAssay AID652126 (The Scripps Research Institute Molecular Screening Center, 2013).
